Biological target: OP-inhibited human butyrylcholinesterase (hBChE) (Homo sapiens, UniProt P06276)
Experiment: Oxime-assisted reactivation of OP-inhibited hBChE (Ellman method)
Conditions: 0.1 mM oxime (0.05 mM C3), 25 °C

Chains of the proteins cited; added tags and fusions are not shown. Lines headed by an entry give the natural chain unless they say otherwise; changes in a name come on top.
UniProt P06276: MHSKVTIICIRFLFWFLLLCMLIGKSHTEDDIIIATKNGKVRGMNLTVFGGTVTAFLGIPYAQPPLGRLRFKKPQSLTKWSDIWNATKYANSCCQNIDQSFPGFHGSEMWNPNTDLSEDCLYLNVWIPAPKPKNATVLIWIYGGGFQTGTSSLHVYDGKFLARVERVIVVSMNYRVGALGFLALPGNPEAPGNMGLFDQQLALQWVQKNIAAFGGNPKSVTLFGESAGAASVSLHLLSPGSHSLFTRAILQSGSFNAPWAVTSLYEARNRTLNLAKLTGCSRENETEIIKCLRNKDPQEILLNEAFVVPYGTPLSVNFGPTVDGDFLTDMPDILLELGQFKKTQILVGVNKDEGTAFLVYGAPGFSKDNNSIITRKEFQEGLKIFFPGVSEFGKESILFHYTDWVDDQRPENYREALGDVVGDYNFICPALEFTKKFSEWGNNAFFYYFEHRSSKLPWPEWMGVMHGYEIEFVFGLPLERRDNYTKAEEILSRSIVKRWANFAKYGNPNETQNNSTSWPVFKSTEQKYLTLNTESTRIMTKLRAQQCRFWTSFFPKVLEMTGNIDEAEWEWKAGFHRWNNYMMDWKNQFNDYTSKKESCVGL

HI-6
Reactmax, maximal reactivation (Cyclosarin-inhibited hBChE): 70% | kobs, observed reactivation rate constant (Cyclosarin-inhibited hBChE): 0.0260 min⁻¹ | t, time in which Reactmax was obtained (Cyclosarin-inhibited hBChE): 24 h | Reactmax, maximal reactivation (Sarin-inhibited hBChE): 98% | kobs, observed reactivation rate constant (Sarin-inhibited hBChE): 0.0113 min⁻¹ | t, time in which Reactmax was obtained (Sarin-inhibited hBChE): 24 h | Reactmax, maximal reactivation (VX-inhibited hBChE): 85% | kobs, observed reactivation rate constant (VX-inhibited hBChE): 0.0356 min⁻¹ | t, time in which Reactmax was obtained (VX-inhibited hBChE): 2.5 h

Reference: paper PMC6151989, “New Cinchona Oximes Evaluated as Reactivators of Acetylcholinesterase and Butyrylcholinesterase Inhibited by Organophosphorus Compounds” (2017)
